The target of this assay is butyrylcholinesterase from equine serum (Equus caballus, UniProt P81908). The experiment in a line: Butyrylcholinesterase. Type of assay: biochemical. To be noted: IC50 BChE, mean ± SD (n = 3); Table 4.

By UniProt entry, the sequences of proteins in these tests, tags left out.
UniProt P81908, whole entry: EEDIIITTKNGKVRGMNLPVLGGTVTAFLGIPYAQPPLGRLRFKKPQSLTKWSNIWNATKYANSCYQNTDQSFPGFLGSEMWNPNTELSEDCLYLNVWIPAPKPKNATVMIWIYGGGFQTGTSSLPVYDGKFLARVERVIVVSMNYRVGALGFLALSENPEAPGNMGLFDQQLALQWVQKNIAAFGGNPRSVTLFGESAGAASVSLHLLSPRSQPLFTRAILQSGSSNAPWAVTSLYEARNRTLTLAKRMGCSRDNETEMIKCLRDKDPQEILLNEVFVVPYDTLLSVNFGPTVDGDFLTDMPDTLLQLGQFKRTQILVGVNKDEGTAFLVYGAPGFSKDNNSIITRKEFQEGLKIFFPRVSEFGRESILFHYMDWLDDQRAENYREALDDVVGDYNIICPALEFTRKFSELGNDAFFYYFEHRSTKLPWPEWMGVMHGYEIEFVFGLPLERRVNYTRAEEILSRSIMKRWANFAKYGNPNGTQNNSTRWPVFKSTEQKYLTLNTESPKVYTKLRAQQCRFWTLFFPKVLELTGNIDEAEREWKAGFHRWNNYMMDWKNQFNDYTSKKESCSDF

As for `CNC(=O)Oc1ccc2c(c1)[C@]1(C)CCN(C)[C@@H]1N2C` [Physostigmine, physostigmine], the half-inhibitory concentration (IC50) (commonly the concentration needed to halve the response being measured) is 581 nM.

Source of the values: article PMC9339560 (Journal of Food and Drug Analysis, 2016).
